The values below come from the SangsterLogP compilation.

SMILES strings stand for the structures.

Compound `O=C(OCC(=O)N1CCCCCC1)c1ccccc1` returned a lipophilicity (logP) of 2.3.
The value for `CC(C)CN(CC(C)C)C(=O)COC(=O)c1ccccc1` was 3.8; that for `CC1CCCC(C)N1C(=O)COC(=O)c1ccccc1` (stereo unspecified) was 2.9; that for `O=C(OCC(=O)N1CCC1)c1ccccc1` was 1.2.
Consider `O=C(OCC(=O)N1CCCC1)c1ccccc1`, for which the lipophilicity (logP) is 1.44.
As to `CCN(C)C(=O)COC(=O)c1ccccc1`, the log partition coefficient (logP) is 1.27.
